Measured values as given in US4374245A, “8-[3-(6-Fluoro-1,2-benzisoxazol-3-yl)propyl]- 1-phenyl-1,3,8-triazaspiro[4.5]decan-4-one” (Hoechst-Roussel Pharmaceuticals Inc., priority 1982, dated 1983).

Test system: apomorphine-induced climbing
Experiment: climbing mice assay (apomorphine-induced climbing, antipsychotic activity)
Type: in vivo, CK-1 male mice
Details: intraperitoneal, 30 minutes prior to apomorphine 1.5 mg/kg subcutaneously, climbing scored at 10, 20 and 30 minutes, linear regression

## Cl.O=C1NCN(c2ccccc2)C12CCN(CCCc1noc3cc(F)ccc13)CC2
  Antipsychotic Activity ED50: 0.10 mg/kg
